Patent US20240310365A1, “DEVICE FOR EVALUATING INNER EAR DRUG DELIVERY” (North Carolina State University, priority 2023, published 2024)

Test system: porcine RWM
Test: Ex-vivo porcine RWM device permeability measurement
Format: in vitro ADME

dexamethasone fluorescein [DexF]
passage through the RWM (comparison in words) (healthy explants): less efficiently than Dex
passage through lowered metabolic activity and leaky membranes (comparison in words) (versus healthy and non-leaky explants): higher than healthy and non-leaky explants
